4 compounds from patent US9562060B2, “Heterocyclic pyridone compound, and intermediate, preparation method and use thereof” (SHANGHAI HUILUN LIFE SCIENCE & TECHNOLOGY CO., LTD, priority 2011, dated 2017) can be followed below.

The chains behind the UniProt entries cited, without tags or fusion partners. Residues count along the entry.
UniProt P08581, 25-1390 limits assumed: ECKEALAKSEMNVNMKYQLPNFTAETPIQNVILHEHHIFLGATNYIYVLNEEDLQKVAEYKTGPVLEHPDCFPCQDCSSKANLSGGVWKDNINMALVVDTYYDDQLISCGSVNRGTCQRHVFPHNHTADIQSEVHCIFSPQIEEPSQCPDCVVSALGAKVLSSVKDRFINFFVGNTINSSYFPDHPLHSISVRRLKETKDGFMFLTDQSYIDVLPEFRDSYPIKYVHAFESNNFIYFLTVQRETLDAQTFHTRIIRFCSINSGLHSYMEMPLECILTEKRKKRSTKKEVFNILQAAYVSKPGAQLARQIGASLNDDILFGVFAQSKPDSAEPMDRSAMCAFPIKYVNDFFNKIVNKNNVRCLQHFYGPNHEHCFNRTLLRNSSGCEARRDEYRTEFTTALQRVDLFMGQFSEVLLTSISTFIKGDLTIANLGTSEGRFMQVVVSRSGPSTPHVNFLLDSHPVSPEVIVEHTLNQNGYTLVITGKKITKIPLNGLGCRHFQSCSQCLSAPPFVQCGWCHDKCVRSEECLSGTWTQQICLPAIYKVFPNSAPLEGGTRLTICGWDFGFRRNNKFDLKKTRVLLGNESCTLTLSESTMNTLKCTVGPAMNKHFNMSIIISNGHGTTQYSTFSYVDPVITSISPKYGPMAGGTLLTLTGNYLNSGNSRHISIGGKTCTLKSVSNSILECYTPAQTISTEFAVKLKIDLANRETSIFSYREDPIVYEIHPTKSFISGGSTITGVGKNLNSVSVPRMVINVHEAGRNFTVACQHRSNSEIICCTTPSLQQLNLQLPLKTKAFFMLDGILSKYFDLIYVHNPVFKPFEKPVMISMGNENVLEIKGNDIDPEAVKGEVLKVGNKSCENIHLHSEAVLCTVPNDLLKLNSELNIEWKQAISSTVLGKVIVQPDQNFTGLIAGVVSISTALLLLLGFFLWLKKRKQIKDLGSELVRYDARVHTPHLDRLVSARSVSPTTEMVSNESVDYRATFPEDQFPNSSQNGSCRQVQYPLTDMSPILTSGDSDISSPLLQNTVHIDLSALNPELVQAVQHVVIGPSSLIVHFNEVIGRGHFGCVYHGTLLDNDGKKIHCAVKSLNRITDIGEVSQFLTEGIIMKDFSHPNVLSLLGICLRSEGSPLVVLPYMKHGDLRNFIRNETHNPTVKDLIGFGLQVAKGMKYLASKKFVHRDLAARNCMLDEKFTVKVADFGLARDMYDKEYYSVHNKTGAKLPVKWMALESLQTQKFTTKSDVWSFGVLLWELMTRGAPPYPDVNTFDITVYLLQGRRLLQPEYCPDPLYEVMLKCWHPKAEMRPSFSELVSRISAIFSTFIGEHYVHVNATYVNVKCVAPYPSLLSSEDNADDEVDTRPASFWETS

This experiment has as its target c-Met kinase (Homo sapiens, UniProt P08581). The experiment can be described thus: Inhibitory activity of compound to c-Met kinases (Z'-LYTE kinase assay kit). The settings on record: read-out: Strength of activity (inhibition on c-Met kinase, IC50), Tyr 6 substrate peptide. How it is done:
The inhibitory activity of the compound to c-Met kinases in vitro is determined through the following method.
The method described below can be used to determine the inhibiting capacity of the compound of the present invention on the c-Met kinase activity, and the inhibiting capacity is represented by IC50. The half inhibitory concentration IC50 (a concentration of the compound for inhibiting the enzyme activity to 50%) of the compound is obtained by: mixing and reacting a certain amount of kinase with a specific substrate and different concentrations of test compound, and then labeling the substrate with an anti-phosphotyrosine antibody and a […], and finally quantitatively determining the c-Met kinase activity through a time-resolved fluorescence method.
The specific experiment is implemented by using a Z′-LYTE kinase assay kit (Invitrogen, item PV4122). First, the test compound is diluted into 8 different concentrations from 100 μM at an interval of 1:5 with an ATP solution (Invitrogen, item PV3227); 5 μL 2×c-Met (Invitrogen, item PV3143) and 2×Z′-LYTE Tyr 6 substrate peptide are respectively taken up, and added to a 384-well microtiter plate, 5 μL diluted different concentrations of test compound are added in sequence, and the lid is closed. The microtiter plate is incubated for 60 min at room temperature (20° C. to 25° C.); and then 5 μL […] is added, and the lid is closed. The microtiter plate is incubated for 60 min at room temperature (20° C. to 25° C.); and then 5 μL termination reagent is added to the reaction well, to terminate the reaction. Finally, the fluorescence intensity (OD400) of each well is determined in a fluorescence analyzer (excitation wavelength: 400 nm). The inhibition rate is calculated, and the half inhibitory concentration (IC50) of the compound is calculated according to the inhibition rates of different concentrations.
For a negative control group, except that test compound (replaced by 5 μL ATP solution) is not added, all the other reagents are added. In addition, an enzyme-free control group (that is, blank group) is set.
In the case of `COc1ccc2c(Oc3ccc(NC(=O)c4c(N(C)C)c5ncsc5n(-c5ccc(F)cc5)c4=O)cc3F)ccnc2c1`, the IC50 is 100 to 1000 nM.
For `CN(CCO)c1c(C(=O)Nc2ccc(Oc3ccnc(N)c3)c(F)c2)c(=O)n(-c2ccc(F)cc2)c2scnc12` the value was less than 10 nM; for `CN1CCOc2cc(C(=O)Nc3ccc(Oc4ccnc5[nH]ccc45)c(F)c3)c(=O)n(-c3ccc(F)cc3)c21`, 10 to 100 nM; for `COc1ccc2c(Oc3ccc(NC(=O)c4c(N(C)CCO)c5ncsc5n(-c5ccc(F)cc5)c4=O)cc3F)ccnc2c1`, less than 10 nM.

A word on the IC50: it is the midpoint of a concentration-inhibition curve.
